Data as given in US6887202B2, “Systems and methods for monitoring health and delivering drugs transdermally” (Science Applications International Corporation, priority 2000, dated 2005).

The chains behind the UniProt entries cited, without tags or fusion partners. Residues count along the entry.
UniProt P04757, 26-499: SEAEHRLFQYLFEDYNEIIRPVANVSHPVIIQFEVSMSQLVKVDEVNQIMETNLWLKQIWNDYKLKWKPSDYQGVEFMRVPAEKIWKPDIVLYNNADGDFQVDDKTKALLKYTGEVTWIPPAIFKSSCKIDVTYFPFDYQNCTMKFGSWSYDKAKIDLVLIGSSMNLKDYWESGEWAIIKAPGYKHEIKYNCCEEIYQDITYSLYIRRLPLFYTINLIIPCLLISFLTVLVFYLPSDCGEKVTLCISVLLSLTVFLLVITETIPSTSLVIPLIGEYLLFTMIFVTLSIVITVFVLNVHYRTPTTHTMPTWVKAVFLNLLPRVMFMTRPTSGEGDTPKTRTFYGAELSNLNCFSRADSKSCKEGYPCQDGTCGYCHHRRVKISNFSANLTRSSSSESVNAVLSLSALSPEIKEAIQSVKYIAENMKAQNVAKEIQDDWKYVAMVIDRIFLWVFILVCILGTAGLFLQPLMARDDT
UniProt P12392, 21-495: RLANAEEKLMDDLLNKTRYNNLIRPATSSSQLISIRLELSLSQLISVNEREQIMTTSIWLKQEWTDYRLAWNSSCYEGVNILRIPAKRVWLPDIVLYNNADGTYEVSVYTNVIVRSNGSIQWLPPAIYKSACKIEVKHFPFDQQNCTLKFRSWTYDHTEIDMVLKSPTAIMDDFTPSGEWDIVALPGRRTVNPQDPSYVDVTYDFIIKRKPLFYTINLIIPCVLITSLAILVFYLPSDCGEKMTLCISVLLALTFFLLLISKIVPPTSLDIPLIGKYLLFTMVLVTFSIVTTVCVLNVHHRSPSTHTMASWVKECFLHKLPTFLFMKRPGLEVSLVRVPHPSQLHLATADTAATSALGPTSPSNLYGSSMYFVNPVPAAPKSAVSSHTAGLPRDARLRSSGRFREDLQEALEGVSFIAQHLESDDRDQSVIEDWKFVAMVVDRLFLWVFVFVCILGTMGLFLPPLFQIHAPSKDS

Biological target: T1, α3/β4 nAChR (Rattus norvegicus, UniProt P04757+P12392)
T1 construct: expressed in transfected cells
Assay: Frontal chromatography with α3/β4 nAChR-IAM stationary phase ([3H]-EB marker)
Type: binding
Description: Rat whole forebrain or transfected cells are suspended in 50 mM Tris-HCI, pH 7.4, (buffer A), homogenized for 30 seconds with Brinkmann Polytron, and centrifuged at 40,000×g for 10 min at 4° C. The pellet is resuspended in 6 ml of 2% deoxycholate or 2% cholate in buffer A and stirred for 2 hours. The mixture is centrifuged at 35,000×g for 30 minutes, and the supernatant containing nAChR-deoxycholate solution is collected.
Dried IAM particles are suspended in 4 ml of the obtained detergent solutions containing nAChR subunits or subtypes. For the immobilization of one nAChR subtype, the mixture of IAM-detergent-receptor is stirred for 1 hour at room temperature. The suspension is dialyzed against 2×1 L buffer A for 24 hours at 4° C. The IAM LC support with immobilized nAChRs is then washed with buffer A, centrifuged and the solid collected.
Chromatography based on nAChR-LAMcolumn or nAChR-liposome-Superdex 200 column: The nAChR-IAM particles or nAChR-Superdex gel beads are packed in a HR5/2 glass column and connected to a HPLC pump. […] All chromatographic experiments are performed at flow rate 0.4 ml/min at room temperature.
The chromatographic data is summed up in 1-min intervals and smoothed using the Microsoft Excel program with a 10 point moving average.

Row | Structure (SMILES) | mobile phase concentration required to decrease the retention volume of 60 pM [3H]-EB from 9.5 ml to 6 ml (α3/β4 nAChR column (0.5×1.25 cm)) | retention volume of [3H]-EB (60 pM [3H]-EB) | retention volume of [3H]-EB (450 pM [3H]-EB) | retention volume for 60 pM [3H]-EB (column stability) (day 1 to day 10 of continuous use) | retention volume for 60 pM [3H]-EB (column stability) (day 50, after 40 days storage at 4° C.)
1 | Clc1ccc(C2CC3CCC2N3)cn1 (racemic) [(±)-Epibatidine] | 0.12 nM |  |  |  | 
2 | Clc1ccc(C2CC3CCC2N3)cn1 (centres unmarked) [[^3H]-EB, [^3H]-epibatidine] |  | 23 mL | 8 mL | 9.5±0.05 ml | 9.7±0.08 ml
